Laboratory results reported in patent US20260248646A1, “INTRAOCULAR DRUG ADMINISTRATION DEVICE, AGENT RESERVOIR, AND METHOD FOR OPERATING INTRAOCULAR DRUG ADMINISTRATION DEVICE” (TERUMO KABUSHIKI KAISHA, priority 2022, published 2026).

Test system: porcine cornea

## 6-carboxyfluorescein-labeled DNA (16 base pairs) [test substance]
  migration depth of test substance at the corneal surface (fluorescence image): large and small migration depths
